Measured values: PubChem BioAssay AID2690 (NMMLSC, 2010)
Only a part is listed here, and it is no random draw. The source made the active and inactive calls.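 The calls were made as follows: active = superoxide response under a set limit, about three screen SD below normal (cut at about 65% in these data); inactive = the rest.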

Assay: reduction of superoxide in aged yeast, primary screen, HTS (AID 2690);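 also: yeast aged for seven days with compound at 30 °C before DHE staining; 100% = average MFI of all compound-treated wells on the plate with controls excluded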
Conditions: S. cerevisiae aged cells, superoxide DHE fluorescence; at 10 µM; stronger effect = lower value

SMILES | superoxide response (% of plate mean)
CCC(=O)N(c1ccccc1)C1(COC)CCN(CCn2nnn(CC)c2=O)CC1 | inactive: 106%
CCC(=O)N(c1ccccc1)C1(COC)CCN(CCc2cccs2)CC1 | inactive: 118%
